# scFv variants of Ab-91 (heavy chain) against a SARS-CoV-2 spike peptide

Data: MIT Lincoln Laboratory AlphaSeq set, Engelhart et al. 2022, doi:10.1038/s41597-022-01779-4, as distributed in FLAb.

Antigen: PDVDLGDISGINAS, a 14-residue peptide of the SARS-CoV-2 spike HR2 region.

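Library AAYL51 holds single substitutions and randomly drawn double and triple substitutions in the CDRs. AlphaSeq pools MATa yeast showing the antibodies with MATalpha yeast showing the peptide. The frequency of each diploid, read from paired DNA barcodes, reflects how well the two displayed proteins bind. Read counts were normalised to the haploid input and turned into Kd by a linear fit to BCL2-family pairs of known affinity, for each replicate. Mating was done three times.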

The variants keep the light chain, the linker and the frameworks of Ab-91 (scFv order VL, a 15-residue (Gly4Ser)3 linker, VH).
VL: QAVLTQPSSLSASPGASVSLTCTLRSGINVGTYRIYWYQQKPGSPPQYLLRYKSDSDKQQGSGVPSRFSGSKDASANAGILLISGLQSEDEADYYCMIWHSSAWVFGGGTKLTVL
VH: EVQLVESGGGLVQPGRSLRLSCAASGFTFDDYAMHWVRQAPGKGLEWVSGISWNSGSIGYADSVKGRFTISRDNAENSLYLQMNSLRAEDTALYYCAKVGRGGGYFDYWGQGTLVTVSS

Substitutions are numbered in sequence along the VH above, starting at 1 (not Kabat). All variants listed here change S63 of the VH, counted from its first residue. Scale: log10 of Kd in nM, estimated from mating counts; low values are strong binders. An entry "nd" has no value in the source: the pair was not observed among the diploids in that replicate. This suggests poor binding but is not conclusive. As a blank, each scFv also met three strains without target: over library AAYL51, 21% of these pairings were detected, typically at 4.54 and seldom below 3.26. For each scFv, signals with the empty controls are counted beside the result, with their mean in brackets. For reference, the parent read 1.86 as the reference entry and 0.88 as a member of this library.

changes,"log10 Kd, replicates",signal with controls
H35I S63R Y108M,nd / nd / nd,0/9
I51L A61N S63I,3.63 / 3.14 / 3.00,0/9
S52H S63E V99G,4.42 / nd / 4.82,1/9 (3.09)
G50V S52W S63D,4.81 / nd / nd,2/9 (4.11)
S63W R101C G103I,3.37 / nd / nd,1/9 (4.26)
Y32G D62F S63L,4.24 / nd / nd,2/9 (4.19)
S57T S63E G104P,3.14 / 3.08 / 3.25,6/9 (4.63)
A61C S63R G104H,nd / nd / nd,0/9
Y32H S63Q G103E,nd / 4.00 / nd,3/9 (4.77)
S57D S63D G102I,nd / 4.58 / nd,0/9

The closing 2 entries, repeated:

changes,"log10 Kd, replicates",signal with controls
Y32H S63Q G103E,nd / 4.00 / nd,3/9 (4.77)
S57D S63D G102I,nd / 4.58 / nd,0/9